For one assay, the target named is α6β2* nAChRs (Mus musculus, UniProt Q9ERK7+Q9R0W9). Type of assay: biochemical. Here is the method:
Regions of interest were dissected from fresh mouse brains and homogenized in ice-cold isotonic sucrose (0.32 M), buffered with HEPES (5 mM, pH 7.5). The suspension was centrifuged at 12,000 × g for 20 min. The pellet was re-suspended in the appropriate uptake buffer ([Grady et al., 2001]; [Salminen et al., 2004]; [Marks et al., 2006]) and used immediately.
Superfusion was carried out at 22°C using a buffer containing: NaCl, 128 mM; KCl, 2.4 mM; CaCl2, 3.2 mM; MgSO4, 1.2 mM; KH2PO4, 1.2 mM; HEPES, 25 mM; glucose, 10 mM; ascorbic acid, 1 mM; pargyline, 0.01 mM; 0.1% BSA; nomifensine, 1 μM (to prevent the re-uptake of dopamine); atropine, 1 μM (to prevent muscarinic receptor activation); pH 7.5. Superfusion proceeded at 0.7 mL/min for 10 min before stimulation with agonist for 20 s. Selected aliquots were perfused with α-CtxMII (50 nM) for 3 min immediately before stimulation. This concentration of α-CtxMII was sufficient to inhibit α6β2^∗-nAChRs in the mouse striatum ([Salminen et al., 2004], [2007]). Fractions (∼0.1 mL) were collected into 96-well plates at 10 s intervals for 4 min (starting ∼1 min before stimulation). After adding 0.15 mL of Optiphase SuperMix scintillation cocktail, radioactivity was measured using a 1450 MicroBeta TriLux counter (Perkin Elmer Life Sciences).

The chains behind the UniProt entries cited, without tags or fusion partners. Residues count along the entry.
UniProt Q9ERK7, 26-501: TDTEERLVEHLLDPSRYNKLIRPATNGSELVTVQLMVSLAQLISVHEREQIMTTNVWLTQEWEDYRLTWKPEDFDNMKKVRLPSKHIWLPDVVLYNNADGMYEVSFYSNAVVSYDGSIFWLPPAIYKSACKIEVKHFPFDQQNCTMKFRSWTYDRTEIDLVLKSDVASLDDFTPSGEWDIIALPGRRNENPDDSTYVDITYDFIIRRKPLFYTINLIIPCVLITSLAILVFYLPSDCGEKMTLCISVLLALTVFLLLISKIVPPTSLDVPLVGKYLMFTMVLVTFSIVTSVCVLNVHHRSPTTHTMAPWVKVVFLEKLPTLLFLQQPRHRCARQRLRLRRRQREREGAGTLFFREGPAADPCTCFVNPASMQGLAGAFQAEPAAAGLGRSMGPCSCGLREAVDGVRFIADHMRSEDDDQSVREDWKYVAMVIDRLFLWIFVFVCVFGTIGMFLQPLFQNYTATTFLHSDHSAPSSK
UniProt Q9R0W9, 31-494: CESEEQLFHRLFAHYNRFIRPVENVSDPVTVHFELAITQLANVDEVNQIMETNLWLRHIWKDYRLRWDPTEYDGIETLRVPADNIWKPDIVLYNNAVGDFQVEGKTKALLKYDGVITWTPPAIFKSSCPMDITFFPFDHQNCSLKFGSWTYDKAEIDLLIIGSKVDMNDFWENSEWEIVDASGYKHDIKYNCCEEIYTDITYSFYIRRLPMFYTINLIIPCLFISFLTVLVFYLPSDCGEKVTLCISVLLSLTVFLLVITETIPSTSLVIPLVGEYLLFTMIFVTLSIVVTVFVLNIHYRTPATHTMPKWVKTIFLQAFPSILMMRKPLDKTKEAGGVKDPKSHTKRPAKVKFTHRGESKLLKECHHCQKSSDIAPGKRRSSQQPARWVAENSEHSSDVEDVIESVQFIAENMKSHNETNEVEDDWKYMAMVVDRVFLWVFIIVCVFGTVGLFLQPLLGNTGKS
UniProt O70174, 31-629: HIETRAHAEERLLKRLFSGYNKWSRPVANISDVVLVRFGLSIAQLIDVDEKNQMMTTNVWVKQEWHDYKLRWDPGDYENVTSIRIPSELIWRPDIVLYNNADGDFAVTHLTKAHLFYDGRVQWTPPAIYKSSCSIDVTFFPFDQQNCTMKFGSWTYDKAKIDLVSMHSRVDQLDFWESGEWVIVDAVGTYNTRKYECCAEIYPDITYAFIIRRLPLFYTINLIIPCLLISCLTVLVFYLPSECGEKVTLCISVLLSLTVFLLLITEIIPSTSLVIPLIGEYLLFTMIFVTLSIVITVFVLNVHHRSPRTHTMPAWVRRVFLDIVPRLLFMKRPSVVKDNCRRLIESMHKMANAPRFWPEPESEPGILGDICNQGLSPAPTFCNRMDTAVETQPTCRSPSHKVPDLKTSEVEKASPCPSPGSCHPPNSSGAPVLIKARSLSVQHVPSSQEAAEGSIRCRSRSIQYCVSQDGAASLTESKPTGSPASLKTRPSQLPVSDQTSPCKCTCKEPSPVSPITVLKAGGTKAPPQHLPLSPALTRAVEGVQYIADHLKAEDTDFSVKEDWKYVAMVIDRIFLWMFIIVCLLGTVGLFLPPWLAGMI

Another assay has as its target α4β2* nAChRs (Mus musculus, UniProt O70174+Q9ERK7). In kind it is biochemical. The settings on record: calculated from Michaelis–Menten curve fit. Here is the method: Regions of interest were dissected from fresh mouse brains and homogenized in ice-cold isotonic sucrose (0.32 M), buffered with HEPES (5 mM, pH 7.5). The suspension was centrifuged at 12,000 × g for 20 min.
Superfusion proceeded at 0.7 mL/min for 10 min before stimulation with agonist for 20 s. Selected aliquots were perfused with α-CtxMII (50 nM) for 3 min immediately before stimulation. […] Fractions (∼0.1 mL) were collected into 96-well plates at 10 s intervals for 4 min (starting ∼1 min before stimulation).

The next assay deals with α6β2 nAChRs. Also noted: method as in Post et al., 2015. The settings on record: oocyte expression system; ref Post et al., 2015; cited from earlier work.

Where “and” joins values, the source holds several entries; their conditions need not be identical. Equal entries are not always repeated.

On to `C1=C(/c2cncnc2)CCCNCC/1` [TC299423, (E)-5-(pyrimidin-5-yl)-1,2,3,4,7,8-hexahydroazocine], for which the “Maximal release relative to that of nicotine” value at α6β2* nAChRs (WT and α5KO) is recorded as 50–54%. Also, the “Potency for α6β2* relative to α4β2*” value at α6β2* nAChRs (patch-clamp and [3H]dopamine release data sets) was 2.5 fold and ~3 fold. At α4β2* nAChRs, the “Maximal response, α-CtxMII-resistant [3H]-dopamine release” value is reported as 6.06 ± 0.37 units. Further, the “Efficacy relative to ACh” value with α6β2 nAChRs is recorded as 59%.

The values above are taken from PMC5626944, “TC299423, a Novel Agonist for Nicotinic Acetylcholine Receptors” (Frontiers in Pharmacology, 2017).
